Results as given in PubChem BioAssay AID804 (SRMLSC, 2007).
The entries are a selection whose mix differs from that of the whole data set. The source made the active and inactive calls.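 Rule for the calls: active = inhibition above a set limit, 3 SD over the mean compound inhibition (cut at about 44% in these data); inactive = the rest.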

Assay: BB579 yeast growth reduction, restrictive medium – S. cerevisiae, yeast lifespan-shortening project, primary screen (AID 804)
Settings: OD615, 48 h, at 10 µM, stronger effect = higher value
Method in brief: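 Test system: DeaD yeast strain BB579 / Buffer or medium: restrictive glucose-based CSMM-D medium / Doses: single 10 µM dose / Schedule: 4 h cell preincubation, 48 h compound exposure, 30 °C humidified / Technique: culture absorbance at 615 nm / Controls: amphotericin B positive control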

Structure (SMILES)	inhibition
O=C(NCC1(N2CCOCC2)CCCCC1)c1cc2ccccc2o1	inactive: 10.2%
O=C(OC1CN2CCC1CC2)C1c2ccccc2Oc2ccccc21 (stereo not drawn)	inactive: -39.6%
COc1ccc(NC2CCN(CCc3ccccc3)CC2)c(OC)c1	inactive: -14.9%
CN1CCN(CCOC(=O)C(O)(c2ccccc2)c2ccccc2)CC1	inactive: -22.5%
O=C(NCC1(N2CCOCC2)CCCCC1)c1cc(=O)[nH]c2ccccc12	inactive: -17.5%
N#CC1(Nc2ccccc2)CCN(CCc2ccccc2)CC1	inactive: -17.1%
N/C(=N\O)c1c(N)no[n+]1[O-]	inactive: -35.7%
O=C(OC1CN2CCC1CC2)C1c2ccccc2C=Cc2ccccc21 (stereo not drawn)	inactive: -29.5%
c1ccc(CN2CCC(Nc3ccccc3)CC2)cc1	inactive: -32.1%
CCN1CCC(Nc2cccc(F)c2)CC1	inactive: -45.7%
Fc1ccccc1NC1CCN(Cc2ccccc2)CC1	inactive: -30.8%
CCC(CO)(C(=O)OC1CN2CCC1CC2)c1ccccc1 (stereo not drawn)	inactive: -31.8%
CCOc1ncccc1C(=O)NCC1(N2CCOCC2)CCCCC1	inactive: -32%
